Experimental findings from PubChem BioAssay AID485273 (Sanford-Burnham Center for Chemical Genomics, 2010) are described below.

Amino acid sequences for entries named in this document (tags omitted).
UniProt P61088, whole entry, looked up: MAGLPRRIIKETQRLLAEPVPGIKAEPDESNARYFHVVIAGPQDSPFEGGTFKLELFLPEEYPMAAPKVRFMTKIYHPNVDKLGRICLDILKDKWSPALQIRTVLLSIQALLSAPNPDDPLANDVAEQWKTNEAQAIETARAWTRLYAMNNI

SMILES strings stand for the structures. The entries are a selection whose mix differs from that of the whole data set. Activity calls are given as the source filed them. No stated cut-off is given here; in the data, active means inhibition above about 45% (passing the limit was not always enough); inconclusive means no clear call, values can overlap the other calls.

This experiment has as its target Ubiquitin-conjugating enzyme E2 N (Homo sapiens) (UniProt P61088). Briefly: blockers of UBC13 ubiquitin chain synthesis – biochemical, TR-FRET, uHTS, primary screen (AID 485273). The following applies: UBC13 polyubiquitin chain formation, at 20 µM, active compounds read high. A general note: Time-resolved FRET reads energy transfer from a long-lived donor to a nearby acceptor.
As usually defined, the inhibition is the relative decrease from the control value, in per cent. Regarding `CC1=C2N=C(C=C3N=C(C(C)=C4[N-][C@@](C)([C@@H]5N=C1[C@](C)(CCC(=O)NC[C@@H](C)OP(=O)([O-])O[C@H]1[C@@H](O)[C@@H](n6cnc7cc(C)c(C)cc76)O[C@@H]1CO)[C@H]5CC(N)=O)[C@@](C)(CC(N)=O)[C@@H]4CCC(N)=O)[C@@](C)(CC(N)=O)[C@@H]3CCC(N)=O)C(C)(C)[C@@H]2CCC(N)=O.[C-]#N.[Co+3]`, the inhibition was inactive: -110%.

For the compound `O=[N+]([O-])c1cc([N+](=O)[O-])c(Nc2nnnn2CCO)c([N+](=O)[O-])c1`, the inhibition is inactive: -60.9%. In the case of `O=[N+]([O-])c1cc([N+](=O)[O-])c(-c2cnn(-c3ccccc3)c2)c([N+](=O)[O-])c1`, the inhibition was inactive: -5.5%. For the compound `Cc1nc2ccc3ccccc3c2s1.O=[N+]([O-])c1cc([N+](=O)[O-])c(O)c([N+](=O)[O-])c1`, the inhibition is inactive: -15.3%.

With `O=[N+]([O-])c1cc([N+](=O)[O-])c(-n2nnc3ccccc32)c([N+](=O)[O-])c1`, the inhibition was inactive: -23.7%.

Take `Cc1ccc(C)c(NP(C)(=O)Oc2ccccc2)c1` (stereo unspecified): the inhibition was inactive: -6.2%. The result for `Cc1cc(C)cc(OP(C)(=O)Nc2ccccn2)c1` (stereo unspecified) reads inactive: 7.3%; that for `CP(=O)(Nc1cccc(Br)c1)Oc1ccccc1` (stereo unspecified), inactive: 3.4%; that for `COc1ccccc1OP(C)(=O)Nc1cccc(Br)c1` (stereo unspecified), inactive: 9.4%. The result for `CCOC(=O)c1ccc(NP(C)(=O)Oc2cc(C)cc(C)c2)cc1` (stereo unspecified) reads inactive: 1.8%; that for `Cc1cc(C)cc(OP(C)(=O)Nc2ccc(C)cc2C)c1` (stereo unspecified), inactive: -4.8%. The result for `CC1=NCCc2c1[nH]c1ccccc21.O=[N+]([O-])c1cc([N+](=O)[O-])c(O)c([N+](=O)[O-])c1` reads inactive: -3.3%. On to `O=C(O)c1cccc(Nc2c([N+](=O)[O-])cc([N+](=O)[O-])cc2[N+](=O)[O-])c1`, for which the inhibition is inactive: -36.3%. As to `CCN(CC)CCCOC(=O)C(O)(c1ccccc1)C1CCCCC1` (stereo unspecified), the inhibition is inactive: 13%. As to `CP(=O)(Nc1ccccc1)Oc1ccc(F)cc1` (stereo unspecified), the inhibition was inactive: -6.7%. For the compound `O=[N+]([O-])c1cc([N+](=O)[O-])c(OC2CCCCC2O)c([N+](=O)[O-])c1` (stereo unspecified), the inhibition is inactive: -11.4%. The result for `CCCCCOc1ccc(NP(C)(=O)Oc2ccc(Cl)cc2Cl)cc1` (stereo unspecified) reads inactive: 12.7%; that for `CCOC(=O)c1ccc(NP(C)(=O)Oc2ccc(F)cc2)cc1` (stereo unspecified), inactive: 5.6%.

In the case of `COc1ccc(OP(C)(=O)Nc2ccc(SC(F)(F)F)cc2)cc1` (stereo unspecified), the inhibition was inactive: 10.9%. Next, `O=C(OC1CN2CCC1CC2)c1ccc([N+](=O)[O-])cc1` (stereo unspecified): inactive: -6.2%; `O=C(OCCN1CCN(CCOCc2ccccc2)CC1)C(O)(c1ccccc1)c1ccccc1`: inactive: 6.4%.
